# Only a part of the results on these compounds is given; other tests are left out.
# Chains of the proteins cited; added tags and fusions are not shown.
# UniProt Q92847, whole entry: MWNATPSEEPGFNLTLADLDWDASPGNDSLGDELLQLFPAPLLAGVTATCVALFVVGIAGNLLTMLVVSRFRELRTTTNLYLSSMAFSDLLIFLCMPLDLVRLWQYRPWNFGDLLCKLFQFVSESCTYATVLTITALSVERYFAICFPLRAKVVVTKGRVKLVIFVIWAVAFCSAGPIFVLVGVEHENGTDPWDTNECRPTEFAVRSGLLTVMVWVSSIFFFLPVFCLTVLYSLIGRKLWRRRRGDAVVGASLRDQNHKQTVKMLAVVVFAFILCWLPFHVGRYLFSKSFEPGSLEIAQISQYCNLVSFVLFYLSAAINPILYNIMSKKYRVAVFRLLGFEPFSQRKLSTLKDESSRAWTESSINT
# Biological target: Ghrelin receptor (Homo sapiens, UniProt Q92847)
# Test: Receptor Selection and Amplification Technology (R-SAT) assay
# Format: cell-based
structure (smiles),measurement,setting,value
COc1cccc2c(C(C)=O)cn(CCCN3CCC(n4c(=O)[nH]c5ccccc54)CC3)c12,RSAT pIC50,"negative logarithm of ligand concentration causing 50% inhibition of constitutive receptor response, transfected NIH3T3 cells, '—' not defined (nd used separately)",6.0
same,RSAT Eff(%),"percent inhibition at saturating ligand, normalized to reference ligand Substance P analog = 100%",90%

# From US20070213359A1 (ACADIA Pharmaceuticals Inc., priority 2005, published 2007)
